pIC50: −log10 of the molar value. Where two headings read alike, the source gives them in different places.

In general, pIC50 refers to the IC50 on a negative log10 scale, so that one unit is a factor of ten.

The test system of test [1] is K-562 (human chronic myelogenous leukemia). The test is described as follows: cells. Particulars: K562, 72 h.
The test system of test [2] is HSC-3 (human oral squamous cell carcinoma).
The subject of test [3] is HepG2 (human hepatocellular carcinoma). The test is described as follows: cells. Particulars: HepG2, 72 h.
The subject of test [4] is HL-60 (human promyelocytic leukemia). The test is described as follows: cells. Particulars: HL-60, 72 h.
The subject of test [5] is K-562 (human chronic myelogenous leukemia). Particulars: for pIC50: K562, AB assay, 72 h.
Test [6] deals with MCF7 (human breast carcinoma).
Test [7] has as its system B16-F10 (mouse melanoma). The test is described as follows: cells. Particulars: B16-F10, 72 h.
In test [8] the test system is HL-60 (human promyelocytic leukemia). Particulars: for pIC50: HL-60, AB assay, 72 h.
For test [9], the system named is HSC-3 (human oral squamous cell carcinoma). The test is described as follows: cells. Particulars: HSC-3, 72 h.
Test [10] has as its system HCT116 (human colon carcinoma). The test is described as follows: cells. Particulars: HCT-116, 72 h.
Test [11] deals with HCT116 (human colon carcinoma). Particulars: HCT116, AB assay, 72 h.
Test [12] concerns HepG2 (human hepatocellular carcinoma). Particulars: HepG2, AB assay, 72 h.
Test [13] has as its system B16-F10 (mouse melanoma). Particulars: B16-F10, AB assay, 72 h.

`COc1cccc2c1C(=O)c1c(O)c3c(c(O)c1C2=O)C[C@@](O)(C(=O)CO)C[C@@H]3O[C@H]1C[C@H](N)[C@H](O)[C@H](C)O1` [DOX, Doxorubicin]: the pIC50 in [1] was 6.52; in test [3], 7.00; in test [4], 6.52; in test [7] it was 7.00; in [9], 6.52; in test [10], 7.00. The “Selectivity index (SI)” value in test [2] (IC50[MRC5]/IC50[HSC-3]) amounted to 5; in [2] (IC50[PBMC]/IC50[HSC-3]) it was 17; in [5] (IC50[MRC5]/IC50[K-562]), 5; in test [5] (IC50[PBMC]/IC50[K-562]) it was 17; in test [6] (IC50[PBMC]/IC50[MCF7]), 4.6; in [8] (IC50[MRC5]/IC50[HL-60]) it was 5. The “Selectivity index (SI)” value in test [8] (IC50[PBMC]/IC50[HL-60]) is reported as 17.
In the case of `O=C1[O][Pt]2([NH][C@@H]3CCCC[C@H]3[NH]2)[O]C1=O` [OXA, Oxaliplatin], the negative logarithm of the IC50 (pIC50) in [5] was 6.00; in [8] it was 6.22.
Consider `Cc1c[nH]c(=O)[n-]c1=O.F[P-](F)(F)(F)(F)F.[Ru+2].c1ccc(-c2ccccn2)nc1.c1ccc(P(c2ccccc2)c2ccccc2)cc1.c1ccc(P(c2ccccc2)c2ccccc2)cc1` [CRT, [Ru(PPh3)2(Thy)(bipy)]PF6], for which the pIC50 in test [2] (HSC3, AB assay, 72 h) is 5.96; in test [11] it was 5.80; in [12], 5.55; in test [5] it was 5.89; in test [6] (MCF7, AB assay, 72 h) it was 4.95; in test [8], 5.85. Also, the pIC50 in test [13] was 5.85.
